# Test results as given in publication PMC10803261, “Structural basis of the human NAIP/NLRC4 inflammasome assembly and pathogen sensing” (Nature Structural & Molecular Biology, 2024).
# “And” between values parts separate entries of the source, which are not always exact repeats. Equal values may be shown once.
# B1: full-length human NLRC4 (huNLRC4), N-terminal tags cleaved (natural protein, UniProt Q9NPP4 1-1024, looked up)
# chain: MNFIKDNSRALIQRMGMTVIKQITDDLFVWNVLNREEVNIICCEKVEQDAARGIIHMILKKGSESCNLFLKSLKEWNYPLFQDLNGQSLFHQTSEGDLDDLAQDLKDLYHTPSFLNFYPLGEDIDIIFNLKSTFTEPVLWRKDQHHHRVEQLTLNGLLQALQSPCIIEGESGKGKSTLLQRIAMLWGSGKCKALTKFKFVFFLRLSRAQGGLFETLCDQLLDIPGTIRKQTFMAMLLKLRQRVLFLLDGYNEFKPQNCPEIEALIKENHRFKNMVIVTTTTECLRHIRQFGALTAEVGDMTEDSAQALIREVLIKELAEGLLLQIQKSRCLRNLMKTPLFVVITCAIQMGESEFHSHTQTTLFHTFYDLLIQKNKHKHKGVAASDFIRSLDHCGDLALEGVFSHKFDFELQDVSSVNEDVLLTTGLLCKYTAQRFKPKYKFFHKSFQEYTAGRRLSSLLTSHEPEEVTKGNGYLQKMVSISDITSTYSSLLRYTCGSSVEATRAVMKHLAAVYQHGCLLGLSIAKRPLWRQESLQSVKNTTEQEILKAININSFVECGIHLYQESTSKSALSQEFEAFFQGKSLYINSGNIPDYLFDFFEHLPNCASALDFIKLDFYGGAMASWEKAAEDTGGIHMEEAPETYIPSRAVSLFFNWKQEFRTLEVTLRDFSKLNKQDIRYLGKIFSSATSLRLQIKRCAGVAGSLSLVLSTCKNIYSLMVEASPLTIEDERHITSVTNLKTLSIHDLQNQRLPGGLTDSLGNLKNLTKLIMDNIKMNEEDAIKLAEGLKNLKKMCLFHLTHLSDIGEGMDYIVKSLSSEPCDLEEIQLVSCCLSANAVKILAQNLHNLVKLSILDLSENYLEKDGNEALHELIDRMNVLEQLTALMLPWGCDVQGSLSSLLKHLEEVPQLVKLGLKNWRLTDTEIRILGAFFGKNPLKNFQQLNLAGNRVSSDGWLAFMGVFENLKQLVFFDFSTKEFLPDPALVRKLSQVLSKLTFLQEARLVGWQFDDDDLSVITGAFKLVTA
# Target: the molecule itself
# Assay: cryo-EM structure
protein,measurement,value
B1,stoichiometry N,11 and 12
